In patent US20050267136A1, “Method of inhibiting dihydrofolate reductase; screening assay for the identification of novel therapeutics and their cellular targets” (McMaster University, priority 2003, published 2005) one finds MIC data, which are given here for one compound.

This assay relates to E. coli MC1061. The assay can be described thus: Minimum inhibitory concentration determination in LB broth. Format: cell-based. To be noted: Escherichia coli, 16 hr at 37° C., OD600 less than 0.1.

Values after ≈ are worked out from the molar mass of the structure shown.

The MIC is the least concentration at which growth counts as inhibited. The compound `CC1Cc2nc(N)nc(N)c2CC1C` (stereo not shown) [Compound 7] came in with an MIC of 16 µg/mL (≈ 83.2 µM).
